From US20050089473A1, “Potassium channel mediated delivery of agents through the blood-brain barrier” (Cedars-Sinai Medical Center, priority 2003, published 2005)

Columns and labels:
[1] = system: intracranial human glial tumors; experiment: Survival study, nude mice with intracranial human glial tumors; assay type: in vivo, mouse; settings: i.v., three consecutive doses for three days
Description: GBM-xenograft rat and mouse models were developed by intracranially implanting primary GBM cells isolated from patient brain tumor tissue. The IC50 of Herceptin on GBM cells in vitro by FACS analysis was established. To investigate whether MS administration by intracarotid (i.c.) and intravenous (i.v.) routes, increases BTB permeability to different tracers, and enhances delivery to brain tumor, permeability studies were performed. The effect of i.c. and i.v. MS administration on BTB permeability in a GBM-xenograft rat model is presented below.
Nude mice were intracranially implanted with cells. The tumor was allowed to grow for 7 days before treatment was initiated. Mice were divided into groups: (1) control, (2) MS (0.9 mM), (3) Temodor (27 mM), (4) Herceptin (4 mg/kg), (5) MS+Temodor, (6) minoxidil sulfate+Herceptin, (7) herceptin+temodor, and (8) MS+Herceptin+temodor. Untreated mice were either dead or euthanized due to tumor-related complications within 30 days. Immediately after 75-days post tumor implantation, all surviving treated mice were euthanized.

[2] = system: Her2-positive metastatic breast cancer; settings: human, in vivo; cited from earlier work

Q: Which Mean survival [1] does the source give for trastuzumab [Herceptin] here?
A: 24.91 ± 8.3 days

Q: Which “Breast cancer patients developing bone metastasis” value [2] does the source give for “trasbuzamab: given to Her2-positive breast cancer patients; probably trastuzumab” here?
A: 4%

Q: What about the “Breast cancer patients developing brain metastasis” value [2] of the same substance?
A: 28%
